Data as given in patent publication US20260306502A1, “MITOCHONDRIAL UNCOUPLERS FOR TREATMENT OF METABOLIC DISEASES AND CANCER” (Mito Biopharma, LLC, priority 2022, published 2026).

Assays:
CD-1 mice = test: Short-term (10-day) escalating toxicology study in CD-1 mice; type: in vivo, mouse; conditions: 10-day study, using different parameters (dosage, Cmax, AUC)
Procedure: (§1) A 10-day toxicology study in CD-1 mice was performed to determine NOAEL of Compound 64, where animals (n=5) were administered once daily for 10 consecutive days. Clinical signs, body weights, food consumptions, rectal temperature, hematology, serum chemistry, plasma exposure, necropsies, tissue histopathology, were examined.
as §1, with “25,” for “64,”
10-day escalating toxicology study in CD-1 mice: Different doses of compounds (e.g. Compound 25 and Compound 64) were given to male CD1 mice once daily via oral gavage, for 10 consecutive days. […] Clinical signs were recorded twice daily. Body weight and food consumption were recorded once daily. Rectal temperature was recorded once every two days for a total of 5 times throughout the study. […] Hematology, serum chemistry, plasma exposure, and tissue distribution were evaluated post 10th dosing in the TK satellite animals. […] Based on the outcomes of the toxicology parameters, NOAEL (no-observable-adverse-effect-level) and MTD (maximal tolerable dose) were determined.

C57Bl6 mice = test: Determination of acute toxicity; conditions: acute toxicity LD50 over minimum efficacious dosage

`COCCN(CCOC)Cc1cc(Cl)cc(C(=O)Nc2nc3ccc(C(F)(F)F)cc3s2)c1O` [Compound 25, 3-((bis(2-methoxyethyl)amino)methyl)-5-chloro-2-hydroxy-N-(6-(trifluoromethyl)benzo[d]thiazol-2-yl)benzamide] was tested, and the NOAEL/MED ratio (CD-1 mice) was “over 19” and the LD50/MED ratio (C57Bl6 mice) was > 200.
For `COCCOCc1cc(C(F)(F)F)cc2sc(NC(=O)c3cc(Cl)cc(CN4C[C@@H](C)O[C@@H](C)C4)c3O)nc12` [Compound 64, 5-chloro-3-((cis-2,6-dimethylmorpholino)methyl)-2-hydroxy-N-(4-((2-methoxyethoxy)methyl)-6-(trifluoromethyl)benzo[d]thiazol-2-yl)benzamide], the LD50/MED ratio (C57Bl6 mice) was “over 400”.
